The experiment concerns the target human A1AR (Homo sapiens, UniProt P30542).

Chains of the proteins cited; added tags and fusions are not shown.
UniProt P30542, whole entry: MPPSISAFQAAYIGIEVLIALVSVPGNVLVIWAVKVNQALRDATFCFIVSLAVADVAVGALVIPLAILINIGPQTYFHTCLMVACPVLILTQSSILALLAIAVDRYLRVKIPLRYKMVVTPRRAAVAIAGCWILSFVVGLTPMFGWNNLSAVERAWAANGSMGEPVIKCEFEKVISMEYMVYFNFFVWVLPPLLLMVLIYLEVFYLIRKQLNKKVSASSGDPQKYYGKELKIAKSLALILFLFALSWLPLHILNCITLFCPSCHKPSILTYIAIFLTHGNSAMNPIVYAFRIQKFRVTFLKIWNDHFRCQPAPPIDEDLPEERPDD

Here are results for 1 compound from paper PMC3456874, “Fragment Screening at Adenosine-A3 Receptors in Living Cells Using a Fluorescence-Based Binding Assay” (Chemistry & Biology, 2012).

Consider `O=C(Cc1ccccc1)Nc1nc2ccc(Cl)cc2c2nc(-c3ccco3)nn12` [MRS1220], for which the affinity corresponds to a Ki of 72.4 nM.

As a reminder, the Ki is the dissociation constant of the complex between target and ligand, obtained from inhibition or displacement. A lower Ki goes with tighter binding.
